Results published in PMC8741243 (Journal of Enzyme Inhibition and Medicinal Chemistry, 2022).

Chains of the proteins cited; added tags and fusions are not shown. Residues count along the entry.
UniProt P00915, 2-261: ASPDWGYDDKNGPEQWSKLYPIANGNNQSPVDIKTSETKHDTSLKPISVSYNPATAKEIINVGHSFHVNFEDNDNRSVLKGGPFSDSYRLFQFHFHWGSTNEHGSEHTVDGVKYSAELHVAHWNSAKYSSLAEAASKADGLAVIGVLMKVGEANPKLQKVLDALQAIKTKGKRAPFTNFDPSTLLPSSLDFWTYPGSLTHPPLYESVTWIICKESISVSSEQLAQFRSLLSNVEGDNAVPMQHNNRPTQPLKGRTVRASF

How the values were obtained:
hCA I = biological target: T1, hCA I (Homo sapiens, UniProt P00915); assay: stopped-flow CO2 hydration; type: biochemical
T1 construct: gene CA1; recombinant, obtained in-house as described earlier

hCA II = biological target: T2, hCA II (Homo sapiens, UniProt P00918); assay: stopped-flow CO2 hydration; type: biochemical
T2 construct: gene CA2; recombinant, obtained in-house as described earlier

`O=c1ccc2ccc(O)cc2o1` [compound 3, 3] gave a Ki (hCA I) of 263 µM and a Ki (hCA II) of 691 µM.
